One may read the Kd as the constant that tells how readily two partners part at equilibrium. Read a low Kd as a tighter complex.

Amino acid sequences for entries named in this document (tags omitted).
UniProt Q9C6B8, whole entry V51A: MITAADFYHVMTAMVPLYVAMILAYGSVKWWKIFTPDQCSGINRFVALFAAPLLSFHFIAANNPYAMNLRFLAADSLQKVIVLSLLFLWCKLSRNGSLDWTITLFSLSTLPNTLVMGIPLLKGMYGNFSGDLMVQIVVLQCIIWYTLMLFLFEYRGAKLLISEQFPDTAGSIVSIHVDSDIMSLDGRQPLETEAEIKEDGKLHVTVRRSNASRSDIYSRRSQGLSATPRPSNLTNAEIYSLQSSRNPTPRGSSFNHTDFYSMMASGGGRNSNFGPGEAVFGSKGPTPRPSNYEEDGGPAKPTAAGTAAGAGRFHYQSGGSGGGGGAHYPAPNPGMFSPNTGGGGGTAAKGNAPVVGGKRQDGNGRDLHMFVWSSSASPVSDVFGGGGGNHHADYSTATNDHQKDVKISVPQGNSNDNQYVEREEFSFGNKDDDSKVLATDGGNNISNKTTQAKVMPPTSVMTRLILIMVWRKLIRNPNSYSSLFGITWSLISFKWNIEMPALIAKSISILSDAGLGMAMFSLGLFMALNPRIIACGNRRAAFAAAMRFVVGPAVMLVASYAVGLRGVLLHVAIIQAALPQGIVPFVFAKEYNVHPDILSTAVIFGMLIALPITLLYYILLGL

Experimental findings from PMC9477737, “Structural insights into auxin recognition and efflux by Arabidopsis PIN1” (Nature, 2022) are described below.

The target of assay [1] is T1, PIN1 (Arabidopsis thaliana, UniProt Q9C6B8). The assay can be described thus: biochemical.
Assay [2] addresses PIN1 (Arabidopsis thaliana, UniProt Q9C6B8, V51A). Briefly: biochemical.
Assay [3] deals with T1, PIN1. Particulars: D6PK co-expressed, pH 5.5, 37 °C.

Take `O=C(O)Cc1c[nH]c2ccccc12` [IAA]: the Kd was 83 µM at PIN1 [1] and 1390 ± 160 µM on PIN1 [2].

For `O=C(O)c1ccccc1C(=O)Nc1cccc2ccccc12` [NPA], the “relative [3H]IAA retention with 10 μM NPA” value at PIN1 [3] is “This PIN1-mediated auxin efflux is inhibited by NPA (Fig. 1b,d)”. On PIN1 [1], the Kd is ~0.15 µM.
